Laboratory results from PubChem BioAssay AID493160 (Sanford-Burnham Center for Chemical Genomics, 2011).
Only a part is listed here, and it is no random draw. Some structures show a salt or complex split into parts, the way the source records it. Activity calls are given as the source filed them.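 Rule for the calls: active = inhibition above about 35% when tested at 20 µM (limit read from the data); inactive = the rest.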

Amino acid sequences for entries named in this document (tags omitted).
UniProt Q2TB90, whole entry: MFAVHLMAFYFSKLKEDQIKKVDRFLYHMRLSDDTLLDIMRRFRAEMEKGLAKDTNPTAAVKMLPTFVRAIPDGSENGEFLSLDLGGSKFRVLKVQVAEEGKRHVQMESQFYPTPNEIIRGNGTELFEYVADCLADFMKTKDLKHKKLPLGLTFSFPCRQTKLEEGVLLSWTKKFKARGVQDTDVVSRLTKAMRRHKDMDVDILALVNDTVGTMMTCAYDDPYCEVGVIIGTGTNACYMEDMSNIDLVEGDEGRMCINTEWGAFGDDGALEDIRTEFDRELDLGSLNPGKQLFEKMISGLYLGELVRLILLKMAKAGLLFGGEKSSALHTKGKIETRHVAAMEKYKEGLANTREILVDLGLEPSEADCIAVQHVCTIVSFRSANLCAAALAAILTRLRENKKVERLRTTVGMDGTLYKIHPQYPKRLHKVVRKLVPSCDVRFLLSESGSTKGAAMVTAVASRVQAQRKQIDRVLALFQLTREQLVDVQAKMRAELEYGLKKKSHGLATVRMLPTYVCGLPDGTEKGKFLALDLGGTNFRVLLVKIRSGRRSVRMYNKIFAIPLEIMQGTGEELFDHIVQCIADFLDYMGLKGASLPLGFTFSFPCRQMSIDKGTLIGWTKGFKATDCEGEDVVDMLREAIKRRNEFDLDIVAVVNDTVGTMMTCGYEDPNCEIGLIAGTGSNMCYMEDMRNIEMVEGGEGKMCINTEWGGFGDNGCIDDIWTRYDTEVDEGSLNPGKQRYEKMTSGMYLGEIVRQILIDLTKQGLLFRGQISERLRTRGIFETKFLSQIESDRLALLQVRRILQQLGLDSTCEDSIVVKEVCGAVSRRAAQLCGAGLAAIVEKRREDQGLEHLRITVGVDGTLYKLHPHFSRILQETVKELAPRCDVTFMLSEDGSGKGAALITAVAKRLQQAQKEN

Each molecule was assayed against Hexokinase HKDC1 (Homo sapiens) (UniProt Q2TB90) (assay: HKDC1 hexokinase inhibitors, primary screen, biochemical, fluorescence, uHTS (AID 493160;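 note: plate controls were DMSO wells with enzyme for no effect and DMSO wells lacking enzyme for full effect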)). Conditions: recombinant HKDC1, G6PDH/diaphorase resazurin coupled fluorescence; at 20 µM; hits give high values.

Structure (SMILES)	inhibition
CCc1ccc(OP(C)(=O)Nc2cccnc2)cc1 (stereo unspecified)	inactive: -2.12%
CP(=O)(Oc1ccccc1)N1CCOC1=O (stereo unspecified)	inactive: -1.64%
O=C(OCCCN1CCCC1)C(O)(c1ccccc1)C1CCCCC1 (stereo unspecified)	inactive: -5.62%
COc1ccccc1OP(C)(=O)Nc1c(C)n(C)n(-c2ccccc2)c1=O (stereo unspecified)	inactive: 0.96%
COc1ccc(OP(C)(=O)Nc2ccc(Br)cc2)cc1 (stereo unspecified)	inactive: -1.01%
CCN(CC)CC(O)COC(=O)C(O)(c1ccccc1)C1CCCCC1 (stereo unspecified)	inactive: -1.44%
CN(C)C(=O)c1c([N+](=O)[O-])cc([N+](=O)[O-])cc1[N+](=O)[O-]	inactive: 18.1%
CP(=O)(Nc1ccc(Cl)cc1)Oc1ccc(F)cc1 (stereo unspecified)	inactive: 2.57%
CC(C)(C)c1ccc(OP(C)(=O)O)cc1	inactive: 10.7%
COc1ccccc1OP(C)(=O)Nc1ccccc1Br (stereo unspecified)	inactive: -6.01%
CP(=O)(OC12CC3CC(CC(C3)C1)C2)OC12CC3CC(CC(C3)C1)C2	inactive: -6.27%
CCOC(=O)c1ccc(NP(C)(=O)Oc2ccc(Cl)cc2)cc1 (stereo unspecified)	inactive: -14.4%
Nc1ccc2c(ccc3cccnc32)n1.O=[N+]([O-])c1cc([N+](=O)[O-])c(O)c([N+](=O)[O-])c1	inactive: 4.3%
COc1ccc(OP(C)(=O)Nc2ccccc2Br)cc1 (stereo unspecified)	inactive: -9.63%
COc1ccccc1OP(C)(=O)Nc1ccc(C)c(C)c1 (stereo unspecified)	inactive: -2%
Cc1cc(C)cc(OP(C)(=O)Nc2cccc(C(F)(F)F)c2)c1 (stereo unspecified)	inactive: 4.27%
O=C1C(O)=C([N+](=O)[O-])C(=O)C(O)=C1[N+](=O)[O-]	inactive: -1.86%
CP(=O)(OCCOc1ccccc1)OCCOc1ccccc1	inactive: -4.89%
CP(=O)(Nc1ccc(Cl)cc1Cl)Oc1ccccc1 (stereo unspecified)	inactive: -5.7%

Structure (SMILES)	inhibition
CCCCCCCCCCCCCCCC1C[N+](C)(C)CCOP(C)(=O)O1 (stereo unspecified)	inactive: 5.94%
CN(C)CCOC(=O)C(O)(c1ccccc1)C1CCCC1 (stereo unspecified)	inactive: -10.1%
COc1ccc(OP(C)(=O)Nc2ccccn2)cc1 (stereo unspecified)	inactive: 1.37%
COc1ccccc1OP(C)(=O)Nc1ccc(Br)cc1 (stereo unspecified)	inactive: -4.89%
CCc1ccc(OP(C)(=O)O)cc1	inactive: -7.53%
COc1ccccc1OP(C)(=O)Nc1ccc(C)cc1C (stereo unspecified)	inactive: 0.49%
CP(=O)(Nc1ccccn1)Oc1ccccc1 (stereo unspecified)	inactive: -7.85%
O=[N+]([O-])c1cc([N+](=O)[O-])c(Nc2ccccn2)c([N+](=O)[O-])c1	inactive: 8.18%
Cc1c(NP(C)(=O)Oc2ccc(C(C)C)cc2)c(=O)n(-c2ccccc2)n1C (stereo unspecified)	inactive: 1.45%
CC(C)c1ccc(OP(C)(=O)Nc2ccc(SC(F)(F)F)cc2)cc1 (stereo unspecified)	inactive: -0.17%
CP(=O)(Nc1ccccc1F)Oc1ccccc1 (stereo unspecified)	inactive: -2.31%
COc1ccc2c(c1O)-c1c(O)c(OC)cc3c1[C@H](C2)[N+](C)(C)CC3.O=[N+]([O-])c1cc([N+](=O)[O-])c([O-])c([N+](=O)[O-])c1[O-]	inactive: 7.38%
O=C(OCCN1CCN(CCOCc2ccccc2)CC1)C(O)(c1ccccc1)c1ccccc1	inactive: 9.57%
O=C(OC1CN2CCC1CC2)c1ccc([N+](=O)[O-])cc1 (stereo unspecified)	inactive: -7.74%
COc1ccc(OP(C)(=O)Nc2ccc(SC(F)(F)F)cc2)cc1 (stereo unspecified)	inactive: 3.65%
CCOC(=O)c1ccc(NP(C)(=O)Oc2ccc(F)cc2)cc1 (stereo unspecified)	inactive: -13.3%
O=[N+]([O-])c1cc([N+](=O)[O-])c(OC2CCCCC2O)c([N+](=O)[O-])c1 (stereo unspecified)	inactive: 6.49%
CCCCCOc1ccc(NP(C)(=O)Oc2ccc(Cl)cc2Cl)cc1 (stereo unspecified)	inactive: 5.48%
CP(=O)(Nc1ccccc1)Oc1ccc(F)cc1 (stereo unspecified)	inactive: 0.18%

Structure (SMILES)	inhibition
CCN(CC)CCCOC(=O)C(O)(c1ccccc1)C1CCCCC1 (stereo unspecified)	inactive: -3.87%
Cc1c([N+](=O)[O-])cc([N+](=O)[O-])c(Br)c1[N+](=O)[O-]	inactive: 2.99%
COc1ccc(NP(C)(=O)Oc2ccccc2OC)cc1 (stereo unspecified)	inactive: 7.36%
CN(C)CCOC(=O)C(O)(c1ccccc1)C1CCCCC1 (stereo unspecified)	inactive: 5.69%
COc1ccc(OP(C)(=O)Nc2cccc(Br)c2)cc1 (stereo unspecified)	inactive: -0.13%
Cc1c(C(c2ccc3c(c2)OCO3)c2c(C)n(C)n(-c3ccccc3)c2=O)c(=O)n(-c2ccccc2)n1C.O=[N+]([O-])c1cc([N+](=O)[O-])c(O)c([N+](=O)[O-])c1	inactive: 3.13%
Cc1cc(-c2cccc3ccccc23)c(C)cn1.O=[N+]([O-])c1cc([N+](=O)[O-])c(O)c([N+](=O)[O-])c1	inactive: 2.6%
O=[N+]([O-])c1cc([N+](=O)[O-])c(NCC2CCS(=O)(=O)C2)c([N+](=O)[O-])c1 (stereo unspecified)	inactive: -6.2%
O=[N+]([O-])c1ccc(OP2(=O)COCCO2)cc1 (stereo unspecified)	inactive: -6.04%
CCOP(C)(=S)SCC(=O)NC(C)(CC)C(=O)O (stereo unspecified)	inactive: -3.18%
CP(=O)(Nc1ccc(SC(F)(F)F)cc1)Oc1ccc(F)cc1 (stereo unspecified)	inactive: 4.1%
Cc1ccccc1NP(C)(=O)Nc1ccccc1C	inactive: 1.54%
CP(=O)(Nc1ccc2c(c1)OCCO2)Oc1ccccc1 (stereo unspecified)	inactive: -2.59%
O=[N+]([O-])c1cc([N+](=O)[O-])c(-n2nnc3ccccc32)c([N+](=O)[O-])c1	inactive: -1.12%
Cc1nc2ccc3ccccc3c2s1.O=[N+]([O-])c1cc([N+](=O)[O-])c(O)c([N+](=O)[O-])c1	inactive: 2.62%
O=[N+]([O-])c1cc([N+](=O)[O-])c(-c2cnn(-c3ccccc3)c2)c([N+](=O)[O-])c1	inactive: 17.5%
CCOC(=O)C(CC)C1=NC(C)(C)Cc2ccccc21.O=[N+]([O-])c1cc([N+](=O)[O-])c(O)c([N+](=O)[O-])c1 (stereo unspecified)	inactive: 0.34%
O=[N+]([O-])c1cc([N+](=O)[O-])c(Nc2nnnn2CCO)c([N+](=O)[O-])c1	inactive: -1.7%
